We go through six compounds from PubChem BioAssay (NCATS).

Sequences of proteins named here, by UniProt entry; tags and fusion partners are left off. A change or cut given only in a name is not applied to a line headed by its entry.
UniProt Q07343: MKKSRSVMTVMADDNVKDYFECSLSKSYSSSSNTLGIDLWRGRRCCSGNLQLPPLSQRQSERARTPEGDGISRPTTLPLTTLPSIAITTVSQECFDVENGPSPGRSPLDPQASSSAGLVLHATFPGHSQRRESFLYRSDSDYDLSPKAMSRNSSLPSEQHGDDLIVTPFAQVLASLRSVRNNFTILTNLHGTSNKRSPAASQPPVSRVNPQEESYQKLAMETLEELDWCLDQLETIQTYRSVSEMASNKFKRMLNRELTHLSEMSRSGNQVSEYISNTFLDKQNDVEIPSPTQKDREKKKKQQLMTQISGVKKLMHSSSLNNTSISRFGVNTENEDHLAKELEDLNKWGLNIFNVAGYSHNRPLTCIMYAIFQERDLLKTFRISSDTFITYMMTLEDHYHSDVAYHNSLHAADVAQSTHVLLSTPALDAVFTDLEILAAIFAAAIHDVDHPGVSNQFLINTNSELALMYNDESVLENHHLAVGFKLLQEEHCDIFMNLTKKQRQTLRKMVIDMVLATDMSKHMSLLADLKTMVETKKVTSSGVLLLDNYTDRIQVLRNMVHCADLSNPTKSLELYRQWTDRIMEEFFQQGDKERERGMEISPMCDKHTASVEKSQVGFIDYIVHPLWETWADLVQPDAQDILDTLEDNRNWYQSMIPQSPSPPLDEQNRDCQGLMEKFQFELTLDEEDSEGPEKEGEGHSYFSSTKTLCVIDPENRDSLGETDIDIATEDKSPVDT
UniProt P03372, whole entry, looked up: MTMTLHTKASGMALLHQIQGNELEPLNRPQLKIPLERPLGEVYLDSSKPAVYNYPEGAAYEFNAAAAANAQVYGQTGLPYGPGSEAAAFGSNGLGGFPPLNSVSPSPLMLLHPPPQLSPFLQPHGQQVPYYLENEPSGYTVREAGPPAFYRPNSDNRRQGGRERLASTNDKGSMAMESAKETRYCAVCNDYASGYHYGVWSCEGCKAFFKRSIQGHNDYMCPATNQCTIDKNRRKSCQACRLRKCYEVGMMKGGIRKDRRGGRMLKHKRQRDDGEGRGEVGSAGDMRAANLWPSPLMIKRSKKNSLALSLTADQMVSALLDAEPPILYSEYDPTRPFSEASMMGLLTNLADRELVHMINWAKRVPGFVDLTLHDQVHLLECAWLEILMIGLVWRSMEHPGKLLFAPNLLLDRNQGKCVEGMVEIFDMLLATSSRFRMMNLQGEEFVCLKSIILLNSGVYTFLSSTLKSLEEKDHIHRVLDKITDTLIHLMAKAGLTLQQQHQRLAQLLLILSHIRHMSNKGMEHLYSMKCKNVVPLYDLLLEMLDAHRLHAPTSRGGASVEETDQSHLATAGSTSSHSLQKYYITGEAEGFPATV
UniProt P10275: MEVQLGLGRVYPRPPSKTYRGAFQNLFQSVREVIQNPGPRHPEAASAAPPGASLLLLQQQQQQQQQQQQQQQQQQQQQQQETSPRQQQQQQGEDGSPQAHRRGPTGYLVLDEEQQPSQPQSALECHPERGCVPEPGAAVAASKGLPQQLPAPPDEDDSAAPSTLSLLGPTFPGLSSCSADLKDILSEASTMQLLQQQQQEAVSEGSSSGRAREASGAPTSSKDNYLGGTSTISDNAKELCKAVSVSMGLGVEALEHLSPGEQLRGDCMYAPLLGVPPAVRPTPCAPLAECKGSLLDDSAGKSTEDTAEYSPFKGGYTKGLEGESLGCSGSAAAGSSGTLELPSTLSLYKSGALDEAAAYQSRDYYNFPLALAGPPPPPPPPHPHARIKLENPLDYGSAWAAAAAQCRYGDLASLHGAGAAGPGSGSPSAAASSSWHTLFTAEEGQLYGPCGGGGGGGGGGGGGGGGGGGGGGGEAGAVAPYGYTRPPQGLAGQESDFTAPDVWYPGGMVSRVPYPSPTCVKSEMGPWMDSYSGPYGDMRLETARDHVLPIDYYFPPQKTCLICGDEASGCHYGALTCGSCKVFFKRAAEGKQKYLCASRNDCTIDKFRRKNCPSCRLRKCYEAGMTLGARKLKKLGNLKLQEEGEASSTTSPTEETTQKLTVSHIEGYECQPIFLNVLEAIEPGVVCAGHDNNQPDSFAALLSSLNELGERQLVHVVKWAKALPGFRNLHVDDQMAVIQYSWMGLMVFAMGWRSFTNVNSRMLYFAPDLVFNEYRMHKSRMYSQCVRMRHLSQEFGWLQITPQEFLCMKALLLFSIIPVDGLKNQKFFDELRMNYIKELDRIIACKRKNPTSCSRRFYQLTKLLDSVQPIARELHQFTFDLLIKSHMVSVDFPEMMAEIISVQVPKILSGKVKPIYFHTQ
UniProt Q03181: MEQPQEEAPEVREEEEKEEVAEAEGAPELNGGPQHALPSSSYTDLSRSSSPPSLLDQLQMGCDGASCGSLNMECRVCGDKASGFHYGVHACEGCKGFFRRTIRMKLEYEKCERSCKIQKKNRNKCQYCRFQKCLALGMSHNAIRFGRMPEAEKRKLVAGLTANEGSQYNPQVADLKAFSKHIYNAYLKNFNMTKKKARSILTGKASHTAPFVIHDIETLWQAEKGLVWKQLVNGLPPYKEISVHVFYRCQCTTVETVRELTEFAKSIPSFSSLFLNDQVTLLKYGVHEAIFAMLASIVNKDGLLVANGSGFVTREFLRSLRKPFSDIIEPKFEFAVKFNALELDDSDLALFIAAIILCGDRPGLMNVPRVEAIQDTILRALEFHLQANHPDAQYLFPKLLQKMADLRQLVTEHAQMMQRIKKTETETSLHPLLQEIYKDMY
UniProt P19793: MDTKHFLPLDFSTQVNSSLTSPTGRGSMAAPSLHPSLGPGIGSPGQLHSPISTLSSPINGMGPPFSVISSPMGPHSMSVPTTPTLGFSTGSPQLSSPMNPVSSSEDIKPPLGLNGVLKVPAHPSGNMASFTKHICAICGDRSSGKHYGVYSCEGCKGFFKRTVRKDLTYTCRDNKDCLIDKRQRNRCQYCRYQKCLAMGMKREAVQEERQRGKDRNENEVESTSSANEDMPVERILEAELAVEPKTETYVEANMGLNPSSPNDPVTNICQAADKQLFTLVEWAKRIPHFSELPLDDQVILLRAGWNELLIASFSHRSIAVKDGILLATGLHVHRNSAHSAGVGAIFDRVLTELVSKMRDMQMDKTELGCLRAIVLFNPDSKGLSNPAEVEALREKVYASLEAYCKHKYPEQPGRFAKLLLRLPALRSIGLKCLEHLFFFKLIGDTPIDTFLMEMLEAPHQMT
UniProt P10828: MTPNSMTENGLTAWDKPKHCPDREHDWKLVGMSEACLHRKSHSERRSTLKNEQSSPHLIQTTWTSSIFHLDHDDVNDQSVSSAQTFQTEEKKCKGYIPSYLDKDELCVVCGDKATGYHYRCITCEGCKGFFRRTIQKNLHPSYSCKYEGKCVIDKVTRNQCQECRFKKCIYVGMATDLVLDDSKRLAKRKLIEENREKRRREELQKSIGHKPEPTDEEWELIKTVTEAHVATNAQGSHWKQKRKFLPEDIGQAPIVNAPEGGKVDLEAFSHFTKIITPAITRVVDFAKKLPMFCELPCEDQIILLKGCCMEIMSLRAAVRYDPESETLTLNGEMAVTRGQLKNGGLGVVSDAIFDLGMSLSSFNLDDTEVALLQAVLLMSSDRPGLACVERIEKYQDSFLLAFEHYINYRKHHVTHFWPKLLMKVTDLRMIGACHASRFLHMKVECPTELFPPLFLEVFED
UniProt Q07869: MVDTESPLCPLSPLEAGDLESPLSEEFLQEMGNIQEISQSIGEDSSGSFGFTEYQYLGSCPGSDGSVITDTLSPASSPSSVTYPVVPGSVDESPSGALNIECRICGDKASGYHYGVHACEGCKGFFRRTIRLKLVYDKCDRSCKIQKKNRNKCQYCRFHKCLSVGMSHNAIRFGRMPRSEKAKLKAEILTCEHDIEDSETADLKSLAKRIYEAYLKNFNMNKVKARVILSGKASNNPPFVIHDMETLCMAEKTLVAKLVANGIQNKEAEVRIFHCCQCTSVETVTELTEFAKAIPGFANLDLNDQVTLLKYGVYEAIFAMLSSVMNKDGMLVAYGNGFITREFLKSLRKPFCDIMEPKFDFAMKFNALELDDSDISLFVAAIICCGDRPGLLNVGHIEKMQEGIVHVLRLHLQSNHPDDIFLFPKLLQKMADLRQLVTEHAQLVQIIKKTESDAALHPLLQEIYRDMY

Structures are written as SMILES. The list shows a part of the results, in another mix than the full data. Results filed as inconclusive are left out. For some assays here: Results with a measured potency or affinity are listed apart. Active and inactive are the calls of the source. Unless noted, calls come from the whole dose curve.

The nature of assay [1]: NFAT Signaling Pathway (AID 444; active = well fitted curve in either direction with a large enough effect, not every such curve was filed as active;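 note: carbachol stimulus at about its EC50 of 1 µM final; % is set by controls: 0 for no effect and ±100 for the full control effect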). The following applies: Jurkat NFAT-bla M1, carbachol, beta-lactamase ratio, 5 h; at 7.69 µM (top of the series) unless noted.
Assay [2] addresses 3',5'-cyclic-AMP phosphodiesterase 4B (Homo sapiens) (UniProt Q07343). The assay can be described thus: qHTS Assay for Inhibitors of PDE-IV (AID 607; active = well fitted activation curve with a large enough effect in the main read-out, with a control signal flat, not every such curve was filed as active; note: % of control where 0% means no effect). The following applies: HEK293 ACTOne CNG channel cells, membrane potential fluorescence; at 22.9 µM (top of the series). The method, boiled down:
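The readout is membrane depolarisation from a cAMP-sensing CNG channel, detected with a potential dye at ex 535/em 590. Cells were HEK293-derived (endogenous PDE-IV) at 1000 cells/well, titrated up to 22.9 uM final.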

A short description of assay [3]: Cell Proliferation Assay against the HBL1 Cell Line (AID 651646; active = well fitted curve in the direction sought with a large enough effect; an effect the other way counts as inactive or inconclusive;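 note: cells exposed to compound for 48 h before reading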). The following applies: HBL1 DLBCL cells; at 46.1 µM (top of the series) unless noted. Put shortly: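 Luminescent ATP read-out (CellTiter-Glo) after 48 h compound exposure of HBL1 cells at 37 °C; percent activity was scaled between DMSO as 100% and 9.2 uM bortezomib (final) as 0%.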
The nature of assay [4]: Cell Proliferation Assay against the TMD8 Cell Line (AID 651645; active = well fitted curve in the direction sought with a large enough effect; an effect the other way counts as inactive or inconclusive;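 note: cells exposed to compound for 48 h before reading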). Particulars: TMD8 DLBCL cell line proliferation/viability; at 46.1 µM (top of the series). Put shortly:
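TMD8 cells, 500/well in RPMI with 5% FBS, dosed immediately and grown 48 h at 37 C, 5% CO2. CellTiter-Glo luminescence normalised to DMSO 100% and 9.2 uM bortezomib (final) 0%.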

The target of assay [5] is Estrogen receptor (Homo sapiens) (UniProt P03372). The assay can be described thus: qHTS assay for small molecule agonists of estrogen receptor alpha signaling (AID 588514).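 Note: 0% = vehicle only and 100% = reference agonist; nearly all actives have a fitted effect of over 70% in size.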 Particulars: ER-alpha-UAS-bla HEK293, beta-lactamase ratio, 18 h, percent of full estradiol response, vehicle zero; at 76.8 µM (top of the series).
In assay [6] the target is Androgen receptor (Homo sapiens) (UniProt P10275). The assay is described as follows: qHTS assay for small molecule agonists of androgen receptor signaling (AID 588515; active = well fitted curve in the direction sought with a large enough effect in the signal ratio, with a control signal flat; the % refers to the signal ratio; note: % is set by controls: 0 for no effect and ±100 for the full control effect). The following applies: AR-UAS-bla HEK293, beta-lactamase ratio, agonist 16 h; stronger effect = higher value.
The target is the same in assay [7]. The assay is described as follows: qHTS assay for small molecule antagonists of androgen receptor signaling (AID 588516; active = well fitted curve in the direction sought with a large enough effect in the signal ratio, with a control signal flat, not every such curve was filed as active; the % refers to the signal ratio; note: % is set by controls: 0 for no effect and ±100 for the full control effect). The following applies: AR-UAS-bla HEK293, beta-lactamase ratio, antagonist mode, 16 h; at 76.8 µM (top of the series).
In assay [8] the target is Bile acid receptor (Homo sapiens) (UniProt Q96RI1). The assay can be described thus: qHTS assay for small molecule antagonists of farnesoid X receptor signaling (AID 588526). Note: % is set by controls: 0 for no effect and ±100 for the full control effect. The following applies: HEK293T FXR-UAS-bla, beta-lactamase ratio, antagonist mode; at 76.7 µM (top of the series).
For assay [9] the target is unchanged. The assay is described as follows: qHTS assay for small molecule agonists of farnesoid X receptor signaling (AID 588527).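 Note: 0% = vehicle basal and 100% = reference agonist.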 Particulars: HEK293T FXR-UAS-bla, beta-lactamase ratio, 16 h; stronger effect = higher value.
Assay [10] deals with Glucocorticoid receptor (Homo sapiens) (UniProt P04150). The assay is described as follows: qHTS assay for small molecule agonists of glucocorticoid receptor signaling (AID 588532; active = well fitted curve in the direction sought with a large enough effect in the signal ratio, with a control signal flat; the % refers to the signal ratio;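 note: 100% = dexamethasone at 0.1 µM and 0% = DMSO only wells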). Particulars: HeLa MMTV-bla, beta-lactamase ratio, agonist, 18 h; stronger effect = higher value.
Assay [11] shares this target. The assay is described as follows: qHTS assay for small molecule antagonists of glucocorticoid receptor signaling (AID 588533; active = well fitted inhibition curve with a large enough effect in the signal ratio, with a control signal flat, not every such curve was filed as active; the % refers to the signal ratio). Particulars: HeLa MMTV-bla, GRE beta-lactamase ratio, antagonist mode, 18 h; at 76.8 µM (top of the series).
Assay [12] concerns the target Peroxisome proliferator-activated receptor delta (Homo sapiens) (UniProt Q03181). The assay is described as follows: qHTS assay for small molecule agonists of peroxisome proliferator-activated receptor delta signaling (AID 588534).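 Note: 0% = DMSO basal wells and 100% = positive control agonist at 10 µM.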 The following applies: HEK293T PPARdelta-UAS-bla, beta-lactamase ratio, 18 h; at 76.7 µM (top of the series).
The target in assay [13] is Peroxisome proliferator-activated receptor gamma (Homo sapiens) (UniProt P37231). The assay is described as follows: qHTS assay for small molecule agonists of peroxisome proliferator-activated receptor gamma signaling (AID 588536; active = well fitted curve in the direction sought with a large enough effect in the signal ratio, with a control signal flat, not every such curve was filed as active; the % refers to the signal ratio;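 note: 0% = DMSO basal wells and 100% = rosiglitazone at 2 µM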). The following applies: HEK293 PPARg-UAS-bla, beta-lactamase ratio, 16 h, percent of rosiglitazone response, DMSO as zero; at 76.7 µM (top of the series).

Assay [14] has as its target Vitamin D3 receptor (Homo sapiens) (UniProt P11473). The assay can be described thus: qHTS assay for small molecule antagonists of vitamin D receptor signaling (AID 588541). Particulars: HEK293T VDR-UAS-bla, beta-lactamase ratio, antagonist mode; at 76.7 µM (top of the series). The method, boiled down: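 Antagonist-mode beta-lactamase reporter assay: HEK293T VDR-UAS-bla cells were exposed to titrated compound alongside 1-alpha,25-dihydroxyvitamin D3 at 3 nM final for 16 h. Values were normalized to the 50 nM agonist control and DMSO basal, with IC50 and efficacy from Hill equation fits.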

Assay [15] has the same target. The assay is described as follows: qHTS assay for small molecule agonists of vitamin D receptor signaling (AID 588543).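 Note: 0% = DMSO basal and 100% = reference agonist control.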 The following applies: HEK293T VDR-UAS-bla, beta-lactamase ratio, 16 h; at 76.8 µM (top of the series). The method, boiled down:
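VDR-UAS-bla HEK293T cells, 2000/well, 2% charcoal-stripped FBS; compound titration 16 h at 37 C; CCF4 beta-lactamase ratio read. Normalized to 50 nM 1-alpha,25-dihydroxyvitamin D3 (100%) and DMSO; Hill fit gives EC50, efficacy.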

Assay [16] concerns the target Retinoic acid receptor RXR-alpha (Homo sapiens) (UniProt P19793). The assay is described as follows: qHTS assay for small molecule agonists of retinoid X receptor alpha signaling (AID 588544).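 Note: 0% = DMSO basal wells and 100% = reference agonist.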 The following applies: HEK293T RXRa-UAS-bla, beta-lactamase reporter, 18 h; at 76.7 µM (top of the series).
Assay [17] has the same target. The assay is described as follows: qHTS assay for small molecule antagonists of retinoid X receptor alpha signaling (AID 588546; active = well fitted inhibition curve with a large enough effect in the signal ratio, with a control signal flat, not every such curve was filed as active; the % refers to the signal ratio). Particulars: HEK293T RXRa-UAS-bla, beta-lactamase ratio, antagonist mode. The method, boiled down: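 Beta-lactamase reporter inhibition, read as CCF4 fluorescence ratio (ex 405, em 460/530 nm) after 2 h at RT. HEK293T UAS-bla cells, 2500/well, were stimulated with 9-cis-RA at 500 or 100 nM final alongside test compound for 18 h at 37 C.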

Assay [18] concerns the target Thyroid hormone receptor beta (Homo sapiens) (UniProt P10828). The assay can be described thus: qHTS assay for small molecule antagonists of thyroid hormone receptor beta signaling (AID 588547; active = well fitted inhibition curve with a large enough effect in the signal ratio, with a control signal flat, not every such curve was filed as active; the % refers to the signal ratio). Particulars: TR-UAS-bla HEK293, beta-lactamase ratio, antagonist mode, 18 h; stronger effect = lower value. The method, boiled down:
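Inhibition of T3-driven (0.4nM final) beta-lactamase reporter activity was measured over 0.59 nM to 92 uM compound after 18 h at 37 C. The cells were GripTite HEK293 TR-UAS-bla in charcoal/dextran-stripped serum, with CCF4 ratio read-out and IC50 from Hill fits.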

Assay [19] in a line: qHTS assay for small molecule activators of the p53 signaling pathway (AID 651743; active = well fitted activation curve with a large enough effect in the signal ratio, not every such curve was filed as active; the % refers to the signal ratio; note: % of control where 0% means no effect). The following applies: HCT-116 p53RE-bla, beta-lactamase FRET ratio, 16 h; activation: stronger effect = higher value.
Assay [20] is described as follows: qHTS assay for small molecule activators of the nuclear factor-kappa B (NF-kB) signaling pathway (AID 651749; active = well fitted activation curve with a large enough effect in the signal ratio; the % refers to the signal ratio; note: % of control where 0% means no effect). Particulars: NF-kB-bla ME-180 cells, beta-lactamase FRET ratio, 16 h; stronger effect = higher value. The method, boiled down: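 Readout: beta-lactamase reporter driven by an NF-kB response element, detected fluorescently as loss of FRET. Cells were the ME-180 line, treated 16 hr at 37C with pin-transferred compound.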

The nature of assay [21]: qHTS assay for environmental chemicals that activate the Aryl hydrocarbon Receptor (AhR) signaling pathway (AID 651777; active = well fitted curve in the direction sought with a large enough effect; an effect the other way counts as inactive or inconclusive; note: % of control where 0% means no effect; nearly all actives have a fitted effect of over 15% in size). The following applies: 1A2-DRE human hepatoma cells, luciferase, 24 h; stronger effect = higher value. Put shortly: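 Following a 24 hr incubation with test chemicals at 37 C and 5% CO2, 1A2-DRE human hepatoma cells received One-Glo reagent; after 30 min at room temperature, luciferase output reflected CYP1A2 induction via AhR.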

For assay [22], the target named is Peroxisome proliferator-activated receptor alpha (Homo sapiens) (UniProt Q07869). The assay is described as follows: qHTS assay for small molecule agonists of the peroxisome proliferator-activated receptor alpha (PPARalpha) signaling pathway (AID 651778; active = well fitted curve in the direction sought with a large enough effect; an effect the other way counts as inactive or inconclusive; note: % of control where 0% means no effect). The following applies: PathHunter PPARalpha complementation, chemiluminescence, 6 h; stronger effect = higher value.
The nature of assay [23]: qHTS assay for small molecule agonists of the antioxidant response element (ARE) signaling pathway measured by Nrf2-dependant transcriptional activity (AID 720636; active = well fitted curve in the direction sought with a large enough effect in the repeat runs; an effect the other way counts as inactive or inconclusive;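 note: HepG2 cells with an ARE-driven luciferase reporter; % of control where 0% means no effect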). Particulars: ARE-luc HepG2, Nrf2 luciferase reporter, 16 h; at 92.4 µM (top of the series).
The nature of assay [24]: qHTS assay for small molecule agonists of the antioxidant response element (ARE) signaling pathway measured by Nrf2-dependant transcriptional activity - cell viability counter screen (AID 720653; active = well fitted curve in the direction sought with a large enough effect in the repeat runs; an effect the other way counts as inactive or inconclusive; note: % is set by controls: 0 for no effect and ±100 for the full control effect). The following applies: ARE-bla HepG2 viability, CellTiter-Glo ATP luminescence, 16 h; stronger effect = lower value. Put shortly:
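Cytotoxicity counter screen: intracellular ATP quantified by CellTiter-Glo luminescence in the same ARE-bla HepG2 plates, after 16 h compound exposure and a 2 h beta-lactamase substrate step.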

Assay [25] can be described thus: qHTS assay for cell viability of HEK293 cells (AID 743288; active = well fitted curve in the direction sought with a large enough effect; an effect the other way counts as inactive or inconclusive; note: % is set by controls: 0 for no effect and ±100 for the full control effect; nearly all actives have a fitted effect of over 50% in size). The following applies: ATP luminescence (CellTiter-Glo), 18 h; max response: stronger effect = lower value. Put shortly:
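Parental HEK293 cells, 2,000 per well, preincubated at least 5 h at 37 C, then exposed to compounds in DMSO for 18 h at 37 C. Viability by CellTiter-Glo ATP luminescence after 30 min at room temperature.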

A short description of assay [26]: qHTS assay for cell viability of the p53RE-bla HCT-116 cell line (AID 743292; active = well fitted curve in the direction sought with a large enough effect; an effect the other way counts as inactive or inconclusive; note: % is set by controls: 0 for no effect and ±100 for the full control effect; nearly all actives have a fitted effect of over 55% in size). The method, boiled down: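 After plating at 4,000 cells per well and a 5 h rest at 37 C, HCT-116 cells carrying p53RE-bla received test chemicals in DMSO. Sixteen hours later at 37 C, CellTiter-Glo was added and luminescence recorded following 30 min at room temperature.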

In the case of `O=C(CO)Nc1ccc([As](=O)(O)O)cc1`, the activity change, negative = inhibition in assay [1] was inactive: 10.1%. The activation (PDE inhibition) in assay [2] was inactive: 1.01%.

`Cc1ccnc(NS(=O)(=O)c2ccc(NC(=O)Nc3ccc(S(=O)(=O)Nc4nccc(C)n4)cc3)cc2)n1`: the viability, percent of control in [3] was 71.1%.

In the case of `C1=CCOCc2cc(ccc2OCCN2CCCC2)Nc2nccc(n2)-c2cccc(c2)OCC1`, the viability, percent of control in [3] was determined as 69.9%.

Consider `CS(=O)(=O)c1cccc(CNc2nc(Nc3ccc4c(c3)CCC(=O)N4)ncc2C(F)(F)F)c1`, for which the viability (% of control) in assay [4] was determined as 109%.

Take `C(Cc1nn[nH]n1)c1nn[nH]n1`: the activity change, negative = inhibition in [1] was inactive: 12.9%. In assay [2], the activation (PDE inhibition) is inactive: -1.34%.

On to `CC(C)OP(=O)(OC(C)C)SCCNS(=O)(=O)c1ccccc1`, for which the activation in assay [5] was inactive: 0.1%; in assay [6] it was inactive: 3.97%; in assay [9] it was inactive: 0.0274%; in [10], inactive: -0.439%; in [12], inactive: -6.21%; in assay [13], inactive: -5%. Also, the activation was inactive: -0.335% in [15]; inactive: -22.9% in [16]; inactive: -2.23% in assay [19]; inactive: -2.8% in assay [20]; inactive: 0.0724% in [21]; inactive: 0.813% in [23]. For the same compound, the activity change, negative = inhibition in [7] is inactive: -6.45%; in assay [8], inactive: -10.9%; in [11], inactive: 9.18%; in [14], inactive: 4.9%. For the same compound, the max response was inactive: -2.6% in assay [17], inactive: -0.741% in [22], inactive: -15.7% in assay [24] and inactive: -12.7% in assay [25]. Moreover, the inhibition in [18] is inactive: -16.9%. Moreover, the Potency entry in assay [26] is “inactive”.
